# AlphaSeq binding of Ab-14 light chain variants to a spike HR2 peptide

Target: peptide PDVDLGDISGINAS, taken from heptad repeat 2 (HR2) of SARS-CoV-2 spike.

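Phage display of a naive human antibody library on the peptide gave the parent. In library AAYL50, one, two or three CDR residues were substituted; doubles and triples were drawn at random. In AlphaSeq, yeast of one mating type display the scFv and yeast of the other type display the target. Pairs that bind mate more often; barcode pairs of the diploids are counted by sequencing. Scores were corrected for input abundance and mapped to Kd with protein pairs of known affinity run in the same pool. The assay was run in three technical replicates.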

Ab-14 is the parent antibody, in scFv form: VH, then a 15-residue (Gly4Ser)3 linker, then VL. The heavy chain is unchanged in all variants.
VH: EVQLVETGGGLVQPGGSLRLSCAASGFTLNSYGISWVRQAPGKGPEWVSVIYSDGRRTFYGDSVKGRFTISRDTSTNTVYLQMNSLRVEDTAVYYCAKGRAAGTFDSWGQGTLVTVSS
VL: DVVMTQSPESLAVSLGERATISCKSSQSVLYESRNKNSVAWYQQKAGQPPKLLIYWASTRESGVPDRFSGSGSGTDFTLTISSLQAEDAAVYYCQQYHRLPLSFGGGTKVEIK

Substitutions are numbered in sequence along the VL above, starting at 1 (not Kabat).
The read-out is the apparent dissociation constant on a log10 scale (nM): the lower, the stronger.
Replicates are averaged; those with no signal do not enter the mean.
Where no diploid with the target was found in that replicate, the entry reads "nd": below detection, most likely a poor binder, though not proof of it.
Empty control strains, which show no peptide, gave a signal in 18% of pairings with library AAYL50; the median was 4.19 and 95% of these signals were weaker than 2.99. No background was subtracted. The control count says in how many pairings with the empty strains this scFv gave a signal, with their mean in brackets.

changes | replicates, log10 nM | log10 Kd (nM), mean | control signals
S58N/H98M/S103N | nd / nd / nd | nd | 0 of 9
K24I/Q27N/S33D | 0.88 / 1.23 / 0.82 | 0.97 | 0 of 9
K24T/L30H | 2.48 / 1.74 / 2.35 | 2.19 | 3 of 9 (3.92)
V29C/N37T/S62G | 2.84 / nd / nd | 2.84 | 0 of 9
N35F/K36W/Q96D | nd / 3.84 / nd | 3.84 | 0 of 9
N35W/N37A/W56H | 2.18 / 1.89 / 2.01 | 2.03 | 0 of 9
V29E/R34C/W56N | 0.34 / 0.68 / 0.47 | 0.50 | 4 of 9 (4.24)
V39L/R60K/R99H | 2.13 / 1.88 / 1.95 | 1.98 | 5 of 9 (4.65)
R34I/T59L/L100Q | nd / nd / nd | nd | 0 of 9
W56M/T59K/S103R | 1.50 / 1.31 / 1.43 | 1.41 | 5 of 9 (4.63)
S26R/S28E/W56S | -0.23 / 0.11 / -0.11 | -0.08 | 6 of 9 (5.30)
E61T/Q96S/L102R | 1.19 / 1.14 / 1.24 | 1.19 | 3 of 9 (5.10)
N35F/S38T/Q96R | nd / nd / 4.65 | 4.65 | 1 of 9 (4.26)
W56V | 5.00 / nd / nd | 5.00 | 3 of 9 (3.95)
K24S/S58V/E61S | 3.53 / 3.01 / 2.58 | 3.04 | 0 of 9
S26D/V29M/T59V | 0.05 / 0.41 / 0.21 | 0.22 | 2 of 9 (4.44)
K24W/S25T/Y31M | 3.11 / 2.64 / 3.01 | 2.92 | 4 of 9 (4.09)
S28M/S33K/R60D | nd / nd / nd | nd | 0 of 9
S25P/S33I/Y97R | nd / nd / 4.10 | 4.10 | 3 of 9 (3.97)
S26R/E61N/L100S | 5.87 / nd / nd | 5.87 | 4 of 9 (3.74)
K24A/V29H/T59S | 3.07 / nd / 3.25 | 3.16 | 2 of 9 (4.23)
S25K/Q27T/T59E | nd / nd / nd | nd | 0 of 9
S38V/S58C/S62H | nd / nd / nd | nd | 0 of 9
K24D/L30S/E61N | nd / nd / nd | nd | 1 of 9 (3.16)
S25I/L30M/S62V | -0.53 / -0.21 / -0.50 | -0.42 | 0 of 9
V29H/Y31P/Q95D | 1.80 / 2.99 / 1.88 | 2.22 | 1 of 9 (4.73)
L30N/N35I/S103Y | 3.91 / 2.35 / 2.73 | 3.00 | 2 of 9 (3.50)
S26R/L30P/R60G | 2.26 / 2.39 / 2.26 | 2.30 | 5 of 9 (3.82)
L30F/S38I/L100G | nd / nd / nd | nd | 0 of 9
S26P/Y97M/L100A | 2.67 / 2.95 / 2.99 | 2.87 | 2 of 9 (3.84)

Parent in this assay: reference entry 0.65, copy in this library 1.68.

The measurements come from Engelhart et al. 2022 (doi:10.1038/s41597-022-01779-4) through the FLAb antibody collection.